Earlier results as cited in patent publication US20250129012A1, “ANTI-INFLAMMATORY AND ANALGESIC COMPOUNDS AND USE THEREOF” (JIANGSU ATOM BIOSCIENCE AND PHARMACEUTICAL CO., LTD., priority 2021, published 2025).

Conditions: generally believed; cited from earlier work

In the case of COc1cc2c(c(OC)c1OC)-c1ccc(OC)c(=O)cc1[C@@H](NC(C)=O)CC2 [colchicine, reference compound], the “Dose toxic to the body” value is given as 0.5 to 0.8 mg/kg and the Fatal dose is given as “higher than 0.8 mg/kg”.
